## Apparent affinities of Ab-14 variants for a coronavirus HR2 peptide

Reference: Engelhart et al. 2022, doi:10.1038/s41597-022-01779-4. File: FLAb, binding data.

Antigen: PDVDLGDISGINAS, a 14-residue peptide of the SARS-CoV-2 spike HR2 region.

Parent scFv Ab-14: VH joined to VL by a 15-residue (Gly4Ser)3 linker. Changes lie in the light chain CDRs alone.
VH: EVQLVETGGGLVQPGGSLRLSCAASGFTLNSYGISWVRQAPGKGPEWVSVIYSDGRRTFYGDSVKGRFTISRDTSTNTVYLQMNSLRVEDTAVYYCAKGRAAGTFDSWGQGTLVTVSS
VL: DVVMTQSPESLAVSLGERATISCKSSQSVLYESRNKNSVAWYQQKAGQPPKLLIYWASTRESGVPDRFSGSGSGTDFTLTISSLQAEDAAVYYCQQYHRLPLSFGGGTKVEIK

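Library AAYL50 holds single substitutions and randomly drawn double and triple substitutions in the CDRs. Affinity was read by AlphaSeq, a pooled yeast mating assay with surface-displayed partners. Mating (16 h, 30 °C) was followed by selection of diploids and sequencing of their barcodes. The ratio of observed to expected reads was calibrated, replicate by replicate, on BCL2-family standards whose Kd was known from biolayer interferometry. Each pool was mated in three replicate cultures.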

Variants are written as CDR1, CDR2 and CDR3 of the light chain (limits as in the source). Parent: KSSQSVLYESRNKNSVA, WASTRES, QQYHRLPLS.
All variants listed here change S25 of the VL, counted from its first residue.
Values are apparent Kd, the geometric mean of the replicates that gave a signal; lower means stronger binding.
A pair that was not seen in any replicate is written "no signal"; this usually means weak binding, but a binder can also be missed.
Background: pairings of library AAYL50 with three empty control strains gave a value in 18% of cases (median 15 µM, 5th percentile 970 nM). Values in that range, when seen in few replicates, are hard to tell from nonspecific mating. The control count says in how many pairings with the empty strains this scFv gave a signal.
For reference, the parent read 4.4 nM as the reference entry and 48 nM as a member of this library.

The variant KRSQSVLYESRNKNQVA | WASTRES | IQYHRLPLS showed 120 nM (3 of 3 replicates; controls 3 of 9). With KKSQSVLYESRNKNSVA | WASTRES | QSYHRLPRS the result was no signal (0 of 3 replicates; controls 1 of 9). For KPSQSVLYEWRNKNSVM | WASTRES | QQYHRLPLS, the assay gave 830 nM (1 of 3 replicates; controls 1 of 9). For KQSQSVLYESRNKNSVA | WASTRYS | QQYHRLPLS, the assay gave 6.3 nM (3 of 3 replicates; controls 0 of 9). The variant KQSQSVLRESRNKNSGA | WASTRES | QQYHRLPLS showed no signal (0 of 3 replicates; controls 3 of 9). The variant KCSQSVLYESRNKNQVA | WASTRES | QGYHRLPLS showed 14 nM (3 of 3 replicates; controls 1 of 9). With KMSQSVLYESRNKNSVA | WPSTRES | QQYSRLPLS the result was 49 nM (3 of 3 replicates; controls 2 of 9). The variant KPSQSTLYESRCKNSVA | WASTRES | QQYHRLPLS gave 2.2 µM (1 of 3 replicates; controls 0 of 9). The variant KFSQSVLYESRNKNSVA | WASTRKR | QQYHRLPLS gave 5.2 µM (1 of 3 replicates; controls 2 of 9).

The variant KVSQSVLYESRNCNSVA | WASTRES | QQYARLPLS gave 2.6 nM (3 of 3 replicates; controls 5 of 9). The variant KYSQSVLYESRNKNSVA | WASTRES | WQYHRLPLS gave 24 µM (1 of 3 replicates; controls 1 of 9). For GASQSVLYESRNKWSVA | WASTRES | QQYHRLPLS, the assay gave 43 nM (3 of 3 replicates; controls 1 of 9). For KWSQSVLYESRCKNSVF | WASTRES | QQYHRLPLS, the assay gave 700 nM (1 of 3 replicates; controls 0 of 9). For KPSQSVLYESRIKRSVA | WASTRES | QQYHRLPLS, the assay gave 4.3 µM (1 of 3 replicates; controls 0 of 9). With KWSQSVLYESRNKNSVA | WASTREW | QQYHRKPLS the result was 370 nM (3 of 3 replicates; controls 0 of 9). The variant KHSQSVLYESRNKNSVA | WAYTRES | QQYFRLPLS showed no signal (0 of 3 replicates; controls 1 of 9). For KKSQSVLYESRNKNSVA | WASTRES | QKYHRLPLS, the assay gave 10 nM (3 of 3 replicates; controls 0 of 9). The variant KLVQSVLYESRNKNSVA | WSSTRES | QQYHRLPLS gave 150 nM (3 of 3 replicates; controls 2 of 9).

The variant KCSQSVLYESRNCNSVA | WASTRES | QQYHRLNLS showed 150 nM (3 of 3 replicates; controls 2 of 9). With KRSQSVLYESVNKNSVA | WAFTRES | QQYHRLPLS the result was no signal (0 of 3 replicates; controls 0 of 9). The variant KLSQSVLYESRNQNSVA | WASTHES | QQYHRLPLS showed 3.5 nM (3 of 3 replicates; controls 0 of 9). For KASQSVLYESRNKNSVA | WASTRRS | QQYHLLPLS, the assay gave 2.1 µM (3 of 3 replicates; controls 7 of 9). With KWSQSVMYESRNKNSVA | WASTRIS | QQYHRLPLS the result was no signal (0 of 3 replicates; controls 0 of 9). For KMSQSVLYESRNKNKVK | WASTRES | QQYHRLPLS, the assay gave 44 µM (2 of 3 replicates; controls 0 of 9). The variant KQSQSVLYESRNKFSVY | WASTRES | QQYHRLPLS gave 34 µM (1 of 3 replicates; controls 0 of 9). The variant KYSQSVLFESRNKNSVA | WASTRES | QQYHRLPLS showed 40 nM (3 of 3 replicates; controls 2 of 9). For KFSQSVLYESRNKNSVA | WASTRES | QFYHRLPLS, the assay gave 95 nM (3 of 3 replicates; controls 1 of 9).

For KASQSVLYESRNANSVA | WASTRES | QCYHRLPLS, the assay gave 56 nM (3 of 3 replicates; controls 3 of 9). The variant KNSQSGLYESRNKNSVA | WASTLES | QQYHRLPLS showed 35 nM (3 of 3 replicates; controls 3 of 9). For KASQSVLYESRNKNSVA | WASTRES | QQYHRLPLS, the assay gave 1.7 nM (3 of 3 replicates; controls 2 of 9). With KHSQSVLYISRNKNSVA | WISTRES | QQYHRLPLS the result was 3.5 µM (1 of 3 replicates; controls 3 of 9). For KCSQPVLYESRNKNSVA | WASTRES | QRYHRLPLS, the assay gave no signal (0 of 3 replicates; controls 0 of 9). The variant KNSQSVLYESRNKNSVA | WASTRES | QQYQRLILS showed 4.1 nM (3 of 3 replicates; controls 1 of 9). The variant KIHASVLYESRNKNSVA | WASTRES | QQYHRLPLS gave 38 µM (1 of 3 replicates; controls 0 of 9). With KQSQSVLYESRNKNHVA | WASTRES | QQYQRLPLS the result was 9.3 nM (3 of 3 replicates; controls 0 of 9). With KLSQSVLYESRNKNSIF | WASTRES | QQYHRLPLS the result was no signal (0 of 3 replicates; controls 0 of 9).

For KHSQSVLYETRNKNSVA | WASTRES | QQYHRLPLS, the assay gave 19 nM (3 of 3 replicates; controls 1 of 9). With KLSQSVLYESRNKNSVA | WASTRES | QQPHRLPPS the result was 570 pM (3 of 3 replicates; controls 4 of 9). The variant KKSQSVLYESRNKNSVA | WASTRES | EQYHRLPLS showed 200 nM (3 of 3 replicates; controls 1 of 9). With ANSQSVLYESRNKNSVA | WASTRWS | QQYHRLPLS the result was 970 nM (3 of 3 replicates; controls 0 of 9). The variant KASQSVLYESRNKNSAA | WASTRES | QQYHRAPLS gave no signal (0 of 3 replicates; controls 2 of 9). The variant KCSQSVLYESRNPNGVA | WASTRES | QQYHRLPLS showed 30 nM (3 of 3 replicates; controls 1 of 9). The variant KASQSVLYESRNKNSVA | WASTRES | QQYHRLVLS gave 1.0 µM (1 of 3 replicates; controls 0 of 9). The variant KPSQSVLYESRNKNYVA | WASTRES | QQYHRLPLS showed no signal (0 of 3 replicates; controls 0 of 9). The variant KTSQSVLYESRNKNSTA | WASTRES | QQYHRLPLS showed 120 µM (3 of 3 replicates; controls 7 of 9).

For KMSQGVLYESRNHNSVA | WASTRES | QQYHRLPLS, the assay gave 1.0 nM (3 of 3 replicates; controls 5 of 9). The variant KPVQSVLYESRNKNSVA | WASTRES | QQYHRLPLS showed 4.9 µM (1 of 3 replicates; controls 0 of 9).